According to patent US12577217B2, “15-PGDH inhibitor” (KYORIN Pharmaceutical Co., Ltd., priority 2019, dated 2026):
pIC50: −log10 of the molar value.

By UniProt entry, the sequences of proteins in these tests, tags left out.
UniProt P15428, whole entry: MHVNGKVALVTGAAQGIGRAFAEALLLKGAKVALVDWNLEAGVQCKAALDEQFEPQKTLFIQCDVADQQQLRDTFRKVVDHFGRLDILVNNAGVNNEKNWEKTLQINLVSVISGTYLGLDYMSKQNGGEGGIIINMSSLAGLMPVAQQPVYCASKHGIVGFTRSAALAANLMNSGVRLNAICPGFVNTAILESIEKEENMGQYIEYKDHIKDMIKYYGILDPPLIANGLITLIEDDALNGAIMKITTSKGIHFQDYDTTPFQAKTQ

Target: recombinant human 15-PGDH (Homo sapiens, UniProt P15428)
Assay: 15-PGDH enzyme inhibition test
Settings: read-out: IC50 Value; 4 nM recombinant human 15-PGDH, 30 μM PGE2, 1 mM NAD+, 60 minutes after starting the reaction
Procedure: 15-PGDH Enzyme Inhibition Test
A test compound and 4 nM recombinant human 15-PGDH (R&D Systems) were added, in 50 mM Tris-HCl (pH 8.0) containing 0.01% TWEEN 20 (Sigma) and 0.01% bovine gamma globulin (Sigma), to a 384-well Flat Bottom Black plate (Corning, 3820), and the resultant was allowed to stand still at room temperature for 12 minutes, and 30 μM PGE2 (Cayman Chemical) and 1 mM NAD+ (Sigma) were added thereto to start the reaction. 60 minutes after starting the reaction, measurement was performed using Synergy 2 (BioTeck) at an excitation wavelength of 340 nm and a fluorescence wavelength of 440 nm. Assuming that a fluorescence signal obtained with an assay buffer added instead of the test compound and NAD+ was 100% and that a signal obtained with NAD+ added was 0%, a concentration corresponding to 50% inhibition plotted on a concentration-reaction curve of the test compound was defined as an IC50 value. Incidentally, in the following tables, an IC50 value smaller than 10 nM was shown as +++, an IC50 value equal to or larger than 10 nM and smaller than 100 nM was shown as ++, and an IC50 value equal to or larger than 100 nM was shown as +.

Structure (SMILES)	pIC50
CCCCN(C)C(=O)c1cnc2c(c1)OCCN2c1ccn2c(=O)n(C)nc2c1	> 8.00
CN1Cc2cc(N3CCOc4cc(C(O)C5CCCCC5)cnc43)ccc2C1=O (stereo not shown)	> 8.00
CC(C)(O)c1ccc(N2CCOc3cc(C(=O)N4CCCCC4)ccc32)cc1 [Example 10-1, (4-(4-(2-Hydroxypropan-2-yl)phenyl)-3,4-dihydro-2H-benzo[b][1,4]oxazin-7-yl)(piperidin-1-yl)methanone]	7.00 to 8.00
CN1Cc2cc(N3CCOc4cc(C(O)C5CCC(F)(F)CC5)cnc43)ccc2C1=O (stereo not shown)	> 8.00
